Assay results from patent publication US9102755B2, “Highly stabilized epidermal growth factor mutants” (PnP Biopharm Co., Ltd., priority 2013, dated 2015).

Experiment: Solubility of wild-type and mutant EGFs in 20 mM sodium phosphate (pH 5.5)
Format: physicochemical
Settings: for Solubility: 1 mg in 1 ml 20 mM sodium phosphate pH 5.5, supernatant, Bradford and UV method; for Solubility (Comparison with wild-type %): 20 mM sodium phosphate pH 5.5, relative to wild-type EGF
Procedure: 1 mg of the respective wild-type and mutant EGFs prepared was dissolved in 1 ml of 20 mM sodium phosphate (pH 5.5 that is the similarly pH environment as cosmetics). In order to remove undissolved EGF, the mixture thus obtained was centrifuged and then supernatant was obtained. The concentration of the supernatant thus obtained was measured by using a Bradford method and UV method.

Substance	Solubility [µg/mL]	Solubility (Comparison with wild-type %) [%]
B-19-3: EGF mutant, 19th valine substituted with glutamic acid (SEQ ID NO: 68) (NSDSECPLSHDGYCLHDGECMYIEALDKYACNCVVGYIGERCQYRDLKWWELR; Epidermal growth factor; UniProt P01133 971-1023, looked up, variant V19E)	482.2	95
D-34-2: EGF mutant, 34th valine substituted with glutamic acid (SEQ ID NO: 76) (NSDSECPLSHDGYCLHDGVCMYIEALDKYACNCEVGYIGERCQYRDLKWWELR; Epidermal growth factor; UniProt P01133 971-1023, looked up, variant V34E)	574.1	113
D-35-6: EGF mutant, 35th valine substituted with glutamic acid (SEQ ID NO: 80) (CNCVEGYIGE)	532.8	105
D-38-9: EGF mutant, 38th isoleucine substituted with serine (SEQ ID NO: 83) (CNCVVGYSGE)	497.2	98
